Experimental data: patent publication US20240336643A1, “BIFUNCTIONAL COMPOUNDS THAT DEGRADE ALK AND USES THEREOF” (DANA-FARBER CANCER INSTITUTE, INC., priority 2021, published 2024)

Chains of the proteins cited; added tags and fusions are not shown. Lines headed by an entry give the natural chain unless they say otherwise; changes in a name come on top. A line that says so, or that is headed by a name, gives the form on record, which may keep a tag or linker.
HiBiT Wild type Variant 1 EML4-ALK (Homo sapiens, UniProt Q9UM73), UniProt Q9UM73, with tags, fused parts or gaps: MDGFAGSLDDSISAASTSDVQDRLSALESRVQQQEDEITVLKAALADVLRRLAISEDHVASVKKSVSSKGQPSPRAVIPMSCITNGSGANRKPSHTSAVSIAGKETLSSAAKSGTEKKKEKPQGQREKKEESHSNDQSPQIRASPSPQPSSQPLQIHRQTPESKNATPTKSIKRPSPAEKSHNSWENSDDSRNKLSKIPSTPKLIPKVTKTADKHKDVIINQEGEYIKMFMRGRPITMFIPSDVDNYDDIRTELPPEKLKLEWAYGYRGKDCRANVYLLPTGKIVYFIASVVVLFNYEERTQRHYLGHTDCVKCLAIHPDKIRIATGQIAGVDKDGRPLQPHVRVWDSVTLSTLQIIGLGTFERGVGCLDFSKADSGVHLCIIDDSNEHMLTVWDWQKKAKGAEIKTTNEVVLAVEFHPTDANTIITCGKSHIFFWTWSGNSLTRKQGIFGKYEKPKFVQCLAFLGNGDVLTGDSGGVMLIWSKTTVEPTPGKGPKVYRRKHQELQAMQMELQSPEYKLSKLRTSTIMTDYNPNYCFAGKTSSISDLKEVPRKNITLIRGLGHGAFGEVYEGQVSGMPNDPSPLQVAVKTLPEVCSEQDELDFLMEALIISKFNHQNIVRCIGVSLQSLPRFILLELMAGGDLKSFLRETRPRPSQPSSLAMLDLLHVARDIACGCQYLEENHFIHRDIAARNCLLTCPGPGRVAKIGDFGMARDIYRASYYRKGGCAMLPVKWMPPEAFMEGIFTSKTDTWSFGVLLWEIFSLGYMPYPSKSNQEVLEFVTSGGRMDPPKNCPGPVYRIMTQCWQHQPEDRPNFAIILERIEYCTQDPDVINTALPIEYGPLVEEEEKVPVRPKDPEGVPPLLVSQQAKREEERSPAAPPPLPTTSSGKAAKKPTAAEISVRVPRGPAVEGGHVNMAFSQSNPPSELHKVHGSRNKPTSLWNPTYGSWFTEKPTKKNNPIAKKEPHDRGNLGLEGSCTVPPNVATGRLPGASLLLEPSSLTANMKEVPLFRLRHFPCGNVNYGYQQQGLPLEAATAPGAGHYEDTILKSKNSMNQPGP
HiBiT Wild type Variant 3 EML4-ALK (Homo sapiens, UniProt Q9UM73), UniProt Q9UM73, with tags, fused parts or gaps: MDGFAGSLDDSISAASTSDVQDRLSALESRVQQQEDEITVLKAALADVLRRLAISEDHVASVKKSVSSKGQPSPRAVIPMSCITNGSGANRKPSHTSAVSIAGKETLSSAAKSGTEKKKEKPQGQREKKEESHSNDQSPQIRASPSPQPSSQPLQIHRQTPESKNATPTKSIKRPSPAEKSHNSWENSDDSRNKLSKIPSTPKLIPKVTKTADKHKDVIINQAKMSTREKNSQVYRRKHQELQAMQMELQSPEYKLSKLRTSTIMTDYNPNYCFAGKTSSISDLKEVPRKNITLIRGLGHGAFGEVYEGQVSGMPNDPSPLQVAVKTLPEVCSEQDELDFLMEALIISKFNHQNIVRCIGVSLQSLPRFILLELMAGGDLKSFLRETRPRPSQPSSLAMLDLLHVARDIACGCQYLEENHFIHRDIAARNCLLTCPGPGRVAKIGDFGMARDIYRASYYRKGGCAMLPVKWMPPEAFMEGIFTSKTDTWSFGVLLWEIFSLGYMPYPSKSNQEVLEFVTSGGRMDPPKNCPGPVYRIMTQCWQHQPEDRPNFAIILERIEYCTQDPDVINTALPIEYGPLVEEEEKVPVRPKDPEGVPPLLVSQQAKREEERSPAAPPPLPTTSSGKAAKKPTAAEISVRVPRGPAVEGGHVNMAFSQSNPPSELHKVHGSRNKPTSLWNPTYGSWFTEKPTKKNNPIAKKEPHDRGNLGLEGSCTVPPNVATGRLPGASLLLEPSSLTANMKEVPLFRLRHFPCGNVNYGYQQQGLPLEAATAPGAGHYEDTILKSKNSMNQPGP

How the values were obtained:
[1] = biological target: HiBiT Wild type Variant 1 EML4-ALK (Homo sapiens, UniProt Q9UM73); settings: read-out: BAF3 Cellular Degradation - HiBiT Wild type Variant 1 EML4-ALK: DC50; Ba/F3 cells, 0.0003-2 μM, 4 hours
[2] = biological target: HiBiT Wild type Variant 3 EML4-ALK (Homo sapiens, UniProt Q9UM73); settings: read-out: BAF3 Cellular Degradation - HiBiT Wild type Variant 3 EML4-ALK: DC50; Ba/F3 cells, 0.0003-2 μM, 4 hours

| Compound | DC50 [1] [nM] | DC50 [2] [nM] |
| --- | --- | --- |
| CNC(=O)c1ccccc1Nc1nc(Nc2cc(C)c(C3CCN(CC4CCN(c5ccc6c(c5)C(=O)N(C5CCC(=O)NC5=O)C6=O)CC4)CC3)cc2OC)ncc1C(F)(F)F (stereo not drawn) [Compound 17, 2-{[2-({4-[1-({1-[2-(2,6-dioxopiperidin-3-yl)-1,3-dioxo-2,3-dihydro-1H-isoindol-5-yl]piperidin-4-yl}methyl)piperidin-4-yl]-2-methoxy-5-methylphenyl}amino)-5-(trifluoromethyl)pyrimidin-4-yl]amino}-N-methylbenzamide] | 2 | 2 |
| COc1cc(C2CCN(CC3CC4(C3)CN(c3ccc5c(c3)C(=O)N(C3CCC(=O)NC3=O)C5=O)C4)CC2)c(C)cc1Nc1ncc(Cl)c(Nc2ccccc2S(=O)(=O)C(C)C)n1 (stereo not drawn) [Compound 16, 5-(6-((4-(4-((5-chloro-4-((2-(isopropylsulfonyl)phenyl)amino)pyrimidin-2-yl)amino)-5-methoxy-2-methylphenyl)piperidin-1-yl)methyl)-2-azaspiro[3.3]heptan-2-yl)-2-(2,6-dioxopiperidin-3-yl)isoindoline-1,3-dione] | 14 | 4 |
| COc1cc(CN2CCC(O)(c3ccc4c(c3)CN(C3CCC(=O)NC3=O)C4=O)CC2)c(C)cc1Nc1ncc(Cl)c(Nc2ccccc2S(=O)(=O)C(C)C)n1 (stereo not drawn) [Compound 26, 3-(5-(1-(4-((5-chloro-4-((2-(isopropylsulfonyl)phenyl)amino)pyrimidin-2-yl)amino)-5-methoxy-2-methylbenzyl)-4-hydroxypiperidin-4-yl)-1-oxoisoindolin-2-yl)piperidine-2,6-dione] | 57 | 9 |
| COc1cc(C2CCN(CC3CCN(c4ccc5c(c4)C(=O)N(C4CCC(=O)NC4=O)C5=O)CC3)CC2)c(C)cc1Nc1ncc(Cl)c(Nc2ccccc2S(=O)(=O)C(C)C)n1 (stereo not drawn) [Compound 10, 5-{4-[(4-{4-[(5-chloro-4-{[2-(propane-2-sulfonyl)phenyl]amino]pyrimidin-2-yl)amino]-5-methoxy-2-methylphenyl}piperidin-1-yl)methyl}piperidin-1-yl}-2-(2,6-dioxopiperidin-3-yl)-2,3-dihydro-1H-isoindole-1,3-dione] | 25 | 6 |
| COc1cc(CCN2CCC(O)(c3ccc4c(c3)CN(C3CCC(=O)NC3=O)C4=O)CC2)c(C)cc1Nc1ncc(Cl)c(Nc2ccccc2S(=O)(=O)C(C)C)n1 (stereo not drawn) [Compound 29] | 85 | 25 |
| COc1cc(C2CCN(C[C@H]3CCN(c4ccc5c(c4)C(=O)N(C4CCC(=O)NC4=O)C5=O)C3)CC2)c(C)cc1Nc1ncc(Cl)c(Nc2ccccc2S(=O)(=O)C(C)C)n1 (stereo partly drawn) [Compound 8, 5-[(3R)-3-[(4-{4-[(5-chloro-4-{[2-(propane-2-sulfonyl)phenyl]amino}pyrimidin-2-yl)amino]-5-methoxy-2-methylphenyl}piperidin-1-yl)methyl]pyrrolidin-1-yl]-2-(2,6-dioxopiperidin-3-yl)-2,3-dihydro-1H-isoindole-1,3-dione] | 14 |  |
| CCc1cc2c(cc1C#CCCCN1CCC(c3ccc4c(c3)CN(C3CCC(=O)NC3=O)C4=O)CC1)C(C)(C)c1[nH]c3cc(C#N)ccc3c1C2=O (stereo not drawn) [Compound 22] | 5 | 1 |
| CNC(=O)c1ccccc1Nc1nc(Nc2cc(C)c(C3CCN(CC4CN(c5ccc6c(c5)C(=O)N(C5CCC(=O)NC5=O)C6=O)C4)CC3)cc2OC(C)C)ncc1C(F)(F)F (stereo not drawn) [Compound 18, 2-{[2-({4-[1-({1-[2-(2,6-dioxopiperidin-3-yl)-1,3-dioxo-2,3-dihydro-1H-isoindol-5-yl]azetidin-3-yl}methyl)piperidin-4-yl]-5-methyl-2-(propan-2-yloxy)phenyl}amino)-5-(trifluoromethyl)pyrimidin-4-yl]amino}-N-methylbenzamide] | 22 | 6 |
| CNC(=O)c1ccccc1Nc1nc(Nc2cc(C)c(C3CCN(CC4CCN(c5ccc6c(c5)C(=O)N(C5CCC(=O)NC5=O)C6=O)CC4)CC3)cc2OC(C)C)ncc1C(F)(F)F (stereo not drawn) [Compound 19, 2-{[2-({4-[1-({1-[2-(2,6-dioxopiperidin-3-yl)-1,3-dioxo-2,3-dihydro-1H-isoindol-5-yl]piperidin-4-yl}methyl)piperidin-4-yl]-5-methyl-2-(propan-2-yloxy)phenyl}amino)-5-(trifluoromethyl)pyrimidin-4-yl]amino}-N-methylbenzamide] | 26 | 6 |
| COc1cc(C2CCN(C3CN(c4ccc5c(c4)C(=O)N(C4CCC(=O)NC4=O)C5=O)C3)CC2)c(C)cc1Nc1ncc(Cl)c(Nc2ccccc2S(=O)(=O)C(C)C)n1 (stereo not drawn) [Compound 15, 5-[3-(4-{4-[(5-chloro-4-{[2-(propane-2-sulfonyl)phenyl]amino}pyrimidin-2-yl)amino]-5-methoxy-2-methylphenyl}piperidin-1-yl)azetidin-1-yl]-2-(2,6-dioxopiperidin-3-yl)-2,3-dihydro-1H-isoindole-1,3-dione] | 23 | 9 |
| COc1cc(C2CCN(C[C@@H]3CCN(c4ccc5c(c4)C(=O)N(C4CCC(=O)NC4=O)C5=O)C3)CC2)c(C)cc1Nc1ncc(Cl)c(Nc2ccccc2S(=O)(=O)C(C)C)n1 (stereo partly drawn) [Compound 9] | 8 | 5 |
| CCc1cc2c(cc1N1CC(CN3CCC(c4ccc5c(c4)CN(C4CCC(=O)NC4=O)C5=O)CC3)C1)C(C)(C)c1[nH]c3cc(C#N)ccc3c1C2=O (stereo not drawn) [Compound 23] | 26 | 6 |
| CCc1cc2c(cc1CCCCN1CCC(c3ccc4c(c3)CN(C3CCC(=O)NC3=O)C4=O)CC1)C(C)(C)c1[nH]c3cc(C#N)ccc3c1C2=O (stereo not drawn) [Compound 21] | 7 | 2 |
| COc1cc(C2CCN(CCC3CN(c4ccc5c(c4)C(=O)N(C4CCC(=O)NC4=O)C5=O)C3)CC2)c(C)cc1Nc1ncc(Cl)c(Nc2ccccc2S(=O)(=O)C(C)C)n1 (stereo not drawn) [Compound 2] | 2 | 1 |
